The target of one test is human rec ACSS2 (Homo sapiens (Human), UniProt Q9NR19). The test can be described thus: Biochemical activity ACSS2 assay (AMP-Glo). To be noted: read-out: IC50 biochemical; human recombinant ACSS2, AMP-Glo, 180 min at 37° C.
In the next test the target is ACSS2 (Homo sapiens (Human), UniProt Q9NR19). The test can be described thus: Cellular assay of 14C acetate incorporation into histones (IC50 ACSS2 cellular histone). The settings on record: read-out: IC50 cellular Histone, HCT-15 cells.

The chains behind the UniProt entries cited, without tags or fusion partners.
UniProt Q9NR19, whole entry: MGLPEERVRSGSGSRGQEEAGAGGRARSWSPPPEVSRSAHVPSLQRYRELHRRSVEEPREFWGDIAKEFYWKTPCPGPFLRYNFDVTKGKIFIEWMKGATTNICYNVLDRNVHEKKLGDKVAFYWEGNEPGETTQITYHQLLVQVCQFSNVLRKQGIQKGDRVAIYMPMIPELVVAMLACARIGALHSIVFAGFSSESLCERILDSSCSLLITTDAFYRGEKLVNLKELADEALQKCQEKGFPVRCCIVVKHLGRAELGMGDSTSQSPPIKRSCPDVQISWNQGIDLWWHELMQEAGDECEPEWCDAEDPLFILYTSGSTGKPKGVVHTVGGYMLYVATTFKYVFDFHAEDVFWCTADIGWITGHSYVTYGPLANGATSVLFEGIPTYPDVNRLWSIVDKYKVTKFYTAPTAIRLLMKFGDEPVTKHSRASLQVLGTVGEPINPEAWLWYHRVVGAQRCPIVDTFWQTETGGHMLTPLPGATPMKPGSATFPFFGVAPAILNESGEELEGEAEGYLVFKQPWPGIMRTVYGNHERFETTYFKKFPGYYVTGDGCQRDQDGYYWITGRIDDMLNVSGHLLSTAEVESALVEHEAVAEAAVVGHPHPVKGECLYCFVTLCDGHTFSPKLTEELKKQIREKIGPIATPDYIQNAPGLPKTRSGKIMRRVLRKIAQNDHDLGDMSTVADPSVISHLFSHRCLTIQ

In patent US20240009175A9, “TETRAZOLE DERIVATIVES” (Merck Patent GmbH, priority 2020, published 2024) one finds IC50 data, which are given here for one molecule.

Only a part of the results on these compounds is given; other tests are left out.

What is called IC50 is the concentration needed to halve the response being measured. For the molecule `COc1nc2nc(C(O)(c3ccccc3)c3ccccc3)n(CCN)c2cc1-c1nnn[nH]1`, the IC50 on human rec ACSS2 was 10 to 100 nM; on ACSS2, 100 to 10000 nM.
